This is a selection; strong and weak results do not stand in their true shares.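 Compound tested at a single concentration for 48 hours in 96-well plates; a percent growth value below 10 was scored as active.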 Active and inactive are the calls of the source.
Each molecule was assayed on MDA-MB-468 breast (assay: NCI-60 one-dose screen, 48 h (100 = growth as untreated, 0 = no growth, -100 = all killed)). Conditions: 10 µM unless noted.
In the case of `O=[N+]([O-])c1ccc(CCCCCCc2ccc([N+](=O)[O-])cc2[N+](=O)[O-])c([N+](=O)[O-])c1`, the growth is reported as inactive: 96.3%. `COc1ccc(C(=O)N(CCCl)CCCl)cc1OC` was tested, and the growth was inactive: 98.6%. In the case of `ClCC1CS1` (stereo unspecified), the growth is reported as inactive: 105%. `Fc1cccc(CNCCCl)c1` was tested, and the growth was inactive: 96.4%. For `CCOCCN(CCCl)Cc1ccccc1`, the growth was inactive: 117%. For `O=P(CCl)(Sc1ccc(Cl)cc1)N(CCCl)CCCl` (stereo unspecified), the growth was inactive: 90%. In the case of `O=[As](O)(c1ccccc1Br)c1ccccc1Br`, the growth is reported as inactive: 105%. In the case of `COC(=O)C1=C(C)O[P@](=O)(OC)CCC1c1ccccc1` (stereo partly specified), the growth is reported as inactive: 98.8%. `Cc1ccccc1OP(=O)(Cl)Oc1ccccc1C` was tested, and the growth was inactive: 97.4%. With `CCOP(=S)(OCC)OCC` the growth was inactive: 116%. In the case of `O=C(O)/C=C\c1cccc(N(CCCl)CCCl)c1`, the growth is reported as inactive: 104%. For `CN(C)P1(Cl)=NP(Cl)(N(C)C)=NP(Cl)(N(C)C)=N1` (stereo unspecified), the growth was inactive: 106%. For `CCOP(=O)(Nc1ccccc1)OCC`, the growth was inactive: 96.6%. For `ClCCN1CCc2ccccc2C1`, the growth was inactive: 100%. `O=[N+]([O-])c1ccc([N+](=O)[O-])cc1` was tested, and the growth was inactive: 108%. With `CCSC(O)C(Cl)(Cl)Cl` (stereo unspecified) the growth was inactive: 90%.

Source: PubChem BioAssay (NCI)
